Results on 28 molecules are retold here after PubChem BioAssay AID1509 (The Scripps Research Institute Molecular Screening Center, 2009).

Protein sequences, listed by entry. Tags and fused reporters are not part of them.
UniProt O95977, whole entry: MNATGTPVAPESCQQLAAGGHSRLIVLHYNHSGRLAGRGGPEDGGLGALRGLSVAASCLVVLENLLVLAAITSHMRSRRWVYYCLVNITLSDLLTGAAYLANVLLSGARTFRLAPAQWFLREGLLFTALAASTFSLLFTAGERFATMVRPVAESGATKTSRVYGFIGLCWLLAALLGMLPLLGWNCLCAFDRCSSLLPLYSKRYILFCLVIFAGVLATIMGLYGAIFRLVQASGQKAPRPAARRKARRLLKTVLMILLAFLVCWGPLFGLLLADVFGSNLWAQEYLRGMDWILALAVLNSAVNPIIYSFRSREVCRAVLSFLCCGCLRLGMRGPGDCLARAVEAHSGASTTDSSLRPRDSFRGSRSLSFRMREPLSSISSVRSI

Structures are written as SMILES. Only a part is listed here, and it is no random draw. Active and inactive are the calls of the source. Rule as the data show it: active = activation above about 11%; inactive = the rest.

The target in this assay is Sphingosine 1-phosphate receptor 4 (Homo sapiens) (UniProt O95977). Nature of the assay: activators of human S1P4 receptor – cell-based, primary screen (AID 1509).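 Also: 0% = DMSO vehicle and 100% = reference agonist.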 As to conditions: S1P4-expressing cell line, agonist reporter assay; at 4.98 µM; hits give high values. In general terms: A reporter such as luciferase makes a cellular process visible.
Regarding `CP(=O)(Nc1ccccc1Br)Oc1ccccc1` (stereo not drawn), the activation is inactive: 0.58%. On to `COc1ccccc1OP(C)(=O)Nc1ccccc1` (stereo not drawn), for which the activation was inactive: 0.92%. For `CP(=S)(Nn1cnnc1)Oc1ccccc1` (stereo not drawn), the activation was inactive: 5.04%. As for `Cc1cc(C)cc(OP(C)(=O)Nc2ccc(SC(F)(F)F)cc2)c1` (stereo not drawn), the activation was inactive: -1.16%. Under `CCc1ccc(OP(C)(=O)N2CCN(c3ccc([N+](=O)[O-])cc3)CC2)cc1` (stereo not drawn) stands inactive: 0.72%. Take `CP(=O)(NC(=O)Nc1ccccc1)Oc1ccccc1` (stereo not drawn): the activation is inactive: 0.71%.

As to `CP(=O)(Oc1ccccc1)OC(c1ccccc1)C(F)(F)F` (stereo not drawn), the activation was inactive: 0.85%. As to `Cc1cccc(C)c1OP(C)(=O)Nc1ccc(SC(F)(F)F)cc1` (stereo not drawn), the activation was inactive: 0.41%.

Take `CP(=O)(Nc1ccc(SC(F)(F)F)cc1)Oc1ccc(Cl)cc1` (stereo not drawn): the activation is inactive: -2.04%. Take `CP(=O)(Nc1ccccn1)Oc1ccc(Cl)cc1` (stereo not drawn): the activation is inactive: -1.71%. For `CCOC(=O)c1ccc(NP(C)(=O)Oc2ccc(OC)cc2)cc1` (stereo not drawn) the value was inactive: 3.28%.

Turning to `CCOP(C)(=S)SCC(=O)NC(C)C(=O)O` (stereo not drawn), the activation was inactive: 1.34%. For `CCN(CC)CCCOC(=O)C(O)(c1ccccc1)c1ccccc1` the value was inactive: 0.42%. Under `O=[N+]([O-])c1ccc2c(c1)C=Nc1ccccc1O2` stands inactive: 1.1%; under `Cc1cccc(C)c1OP(C)(N)=O` (stereo not drawn), inactive: 1.17%. As to `CC(C)(C)c1ccc(OP(C)(=O)Nc2ccc(SC(F)(F)F)cc2)cc1` (stereo not drawn), the activation is inactive: -0.58%. With `Cc1cc(C)cc(OP(C)(N)=O)c1` (stereo not drawn), the activation was inactive: -0.93%. Under `COc1ccc(OP(C)(=O)Nc2cccc(F)c2)cc1` (stereo not drawn) stands inactive: -1.59%. Take `COc1ccccc1OP(C)(=O)Nc1cc(Cl)ccc1C` (stereo not drawn): the activation was inactive: 1.41%.

In the case of `Cc1ccc(NP(C)(=O)Oc2ccccc2)c(C)c1` (stereo not drawn), the activation is inactive: 1.74%.

With `COc1ccccc1OP(C)(=O)Nc1ccc(C)cc1` (stereo not drawn), the activation was inactive: 1.9%. With `CCOC(=O)c1ccc(NP(C)(=O)Oc2ccccc2)cc1` (stereo not drawn), the activation was inactive: 1.68%. Under `O=C(O)c1cccc(Nc2c([N+](=O)[O-])cc([N+](=O)[O-])cc2[N+](=O)[O-])c1` stands inactive: -0.58%; under `CC1=NCCc2c1[nH]c1ccccc21.O=[N+]([O-])c1cc([N+](=O)[O-])c(O)c([N+](=O)[O-])c1`, inactive: -1.64%.

For `CCOC(=O)c1ccc(NP(C)(=O)Oc2cc(C)cc(C)c2)cc1` (stereo not drawn), the activation is inactive: -0.72%. For `Cc1cc(C)cc(OP(C)(=O)Nc2ccc(C)cc2C)c1` (stereo not drawn) the value was inactive: 0.46%. For `COc1ccccc1OP(C)(=O)Nc1cccc(Br)c1` (stereo not drawn) the value was inactive: 1.01%. In the case of `Cc1ccc(C)c(NP(C)(=O)Oc2ccccc2)c1` (stereo not drawn), the activation is inactive: 0.35%.
